Experiments:
[1] = target: MOR (Homo sapiens, UniProt P35372); type: binding; conditions: read-out: Ki [MOR; against [3H]DAMGO
[2] = target: DOR (Homo sapiens, UniProt P41143); type: binding; conditions: read-out: Ki [DOR; against [3H]DADLE

Sequences of proteins named here, by UniProt entry; tags and fusion partners are left off.
UniProt P35372, whole entry: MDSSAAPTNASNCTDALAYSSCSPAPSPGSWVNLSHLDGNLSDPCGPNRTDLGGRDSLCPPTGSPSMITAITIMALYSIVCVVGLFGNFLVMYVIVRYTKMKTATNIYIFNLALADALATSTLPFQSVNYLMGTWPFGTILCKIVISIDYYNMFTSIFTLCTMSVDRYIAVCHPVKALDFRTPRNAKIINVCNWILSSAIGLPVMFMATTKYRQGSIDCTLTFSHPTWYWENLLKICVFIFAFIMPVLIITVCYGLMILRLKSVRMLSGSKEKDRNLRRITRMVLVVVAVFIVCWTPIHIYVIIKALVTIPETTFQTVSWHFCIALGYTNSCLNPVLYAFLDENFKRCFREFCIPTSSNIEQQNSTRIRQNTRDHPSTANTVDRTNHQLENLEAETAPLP
UniProt P41143, whole entry: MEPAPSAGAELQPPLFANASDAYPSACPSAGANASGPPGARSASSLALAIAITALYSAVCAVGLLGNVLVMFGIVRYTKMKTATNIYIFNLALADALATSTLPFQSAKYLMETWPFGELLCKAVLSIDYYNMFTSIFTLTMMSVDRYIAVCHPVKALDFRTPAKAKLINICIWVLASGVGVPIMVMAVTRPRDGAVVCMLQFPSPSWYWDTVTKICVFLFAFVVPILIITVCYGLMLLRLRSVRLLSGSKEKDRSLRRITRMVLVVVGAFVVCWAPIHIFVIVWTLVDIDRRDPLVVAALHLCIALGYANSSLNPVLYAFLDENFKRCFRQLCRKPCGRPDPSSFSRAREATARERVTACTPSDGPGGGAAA

Question: Which Ki [1] does the source give for COC(=O)[C@@H]1C[C@H](OC(C)=O)C(=O)[C@H]2[C@@]1(C)CC[C@H]1C(=O)O[C@H](c3ccoc3)C[C@]21C [SA, salvinorin A] here?
Answer: The Ki was over 10 µM.

Question: And the Ki [2]?
Answer: Its Ki is over 10 µM.

— article PMC3031978 (Bioorganic & medicinal chemistry letters, 2010)
